Source: PubChem BioAssay AID686992 (Broad Institute, 2013)
The entries are a selection whose mix differs from that of the whole data set. The source made the active and inactive calls.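 How the source made its calls: active means mean E-selectin-positive cell signal at least 10% of the positive control, reached in at least 60% of replicates, without over 20% cell loss; inconclusive means no rule given, readout overlaps actives, possibly toxicity-flagged; inactive means the rest, including those meeting only one limit.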

Amino acid sequences for entries named in this document (tags omitted).
UniProt P16581, whole entry: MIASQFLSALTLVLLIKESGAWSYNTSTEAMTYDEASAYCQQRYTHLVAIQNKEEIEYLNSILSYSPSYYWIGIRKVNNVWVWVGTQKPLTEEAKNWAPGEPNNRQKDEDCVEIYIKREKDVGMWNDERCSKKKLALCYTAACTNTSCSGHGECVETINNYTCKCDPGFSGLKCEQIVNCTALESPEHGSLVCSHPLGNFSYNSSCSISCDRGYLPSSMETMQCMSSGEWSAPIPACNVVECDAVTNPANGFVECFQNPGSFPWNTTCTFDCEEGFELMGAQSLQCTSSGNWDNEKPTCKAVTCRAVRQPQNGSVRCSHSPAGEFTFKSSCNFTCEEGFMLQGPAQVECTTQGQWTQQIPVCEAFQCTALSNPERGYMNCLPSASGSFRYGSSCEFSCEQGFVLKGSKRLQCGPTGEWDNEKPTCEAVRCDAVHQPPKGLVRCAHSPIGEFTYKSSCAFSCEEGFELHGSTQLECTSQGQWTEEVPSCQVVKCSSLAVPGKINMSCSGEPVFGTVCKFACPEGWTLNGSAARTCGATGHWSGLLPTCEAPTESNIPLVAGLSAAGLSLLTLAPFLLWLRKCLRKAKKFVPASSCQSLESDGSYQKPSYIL

Biological target: E-selectin (Homo sapiens) (UniProt P16581)
Assay: E-selectin induction in HUVECs, primary screen, imaging, HUVEC, immunofluorescence imaging, single point (AID 686992);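 further: signal is the percent of cells scored E-selectin positive by PE staining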
Details: at 7.58 µM, active compounds read high, normalized: neutral wells 0, TNF-alpha wells 100
Procedure, shortened: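 Assay system: HUVEC, human umbilical vein endothelial cells / Amount: 3,000 HUVEC/well / Controls: TNF-alpha positive control, DMSO neutral control / Compound dosing: single concentration / Medium: EGM-2 over gelatin coat / Evaluation: percent E-selectin-positive cells / Signal: immunofluorescence imaging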

Compound	activation
Cc1cccc(NC2(C#N)CCN(Cc3ccccc3)CC2)c1	inactive: -0.001%
COc1ccc(C(=O)NCC2(N3CCCCC3)CCCCC2)c(OC)c1OC	inactive: 5.29%
CC(C)(C)OC(=O)N1CCC(N(C(=O)c2ccccc2)c2ccc(F)cc2)CC1	inactive: -0.172%
CCC(c1nnnn1C1CCCC1)N1CCC(n2c(=O)[nH]c3ccccc32)CC1 (centres undefined)	inactive: 0.166%
CCCCn1nnnc1C(CC)N1CCC(n2c(=O)[nH]c3ccccc32)CC1 (centres undefined)	inactive: 0.675%
CCCCn1nnnc1C(c1cccs1)N1CCC(n2c(=O)[nH]c3ccccc32)CC1 (centres undefined)	inactive: -0.113%
O=C(NCC1(N2CCCCC2)CCCCC1)c1ccc(Cl)s1	inactive: 0.0675%
N#CC1(Nc2ccccc2)CCN(Cc2ccccc2)CC1	inactive: -0.002%
O=c1[nH]c2ccccc2n1C1CCN(C(c2cc3ccccc3o2)c2nnnn2C2CCCCC2)CC1 (centres undefined)	inactive: -0.195%
COc1ccc(Cl)cc1C(=O)NCC1(N2CCOCC2)CCCCC1	inactive: -0.201%
CCCCn1nnnc1C(c1ccc(OC)cc1)N1CCC(n2c(=O)[nH]c3ccccc32)CC1 (centres undefined)	inactive: 0.012%
O=C(NCC1(N2CCCCC2)CCCCC1)c1ccc(Cl)nc1	inactive: 0.0465%
Cc1cc(C)cc(N(C(=O)c2ccccc2)C2CCN(C(=O)OC(C)(C)C)CC2)c1	inactive: -0.069%
CCCCn1nnnc1C(c1cc2ccccc2o1)N1CCC(n2c(=O)[nH]c3ccccc32)CC1 (centres undefined)	inactive: -1.23%
O=P1(N(CCCl)CCCl)SCCCS1	inactive: -0.097%
CC(C)(C)n1nnnc1C(c1ccccc1)N1CCC(n2c(=O)[nH]c3ccccc32)CC1 (centres undefined)	inactive: -0.0705%
CCOc1ccc(C)cc1CN(CCCl)CCCl	inactive: -0.0525%
COc1cc(C(=O)NCC2(N(C)C)CCCCC2)ccc1OC(F)F	inactive: 0.0375%
O=c1[nH]c2ccccc2n1C1CCN(C(c2ccccc2)c2nnnn2C2CCCCC2)CC1 (centres undefined)	inactive: 0.164%
O=c1[nH]c2ccccc2n1C1CCN(C(c2ccccc2OC(F)(F)F)c2nnnn2C2CCCC2)CC1 (centres undefined)	inactive: 0.518%

Compound	activation
O=C(NCC1(N2CCCCC2)CCCCC1)c1cccc([N+](=O)[O-])c1	inactive: 0.0025%
COc1ccc(NC2CCN(C(=O)OC(C)(C)C)CC2)cc1	inactive: -0.01%
O=C(NCC1(N2CCOCC2)CCCCC1)c1cc(F)c(F)cc1Cl	inactive: -0.417%
CCC(c1nnnn1C(C)(C)C)N1CCC(n2c(=O)[nH]c3ccccc32)CC1 (centres undefined)	inactive: -0.095%
CCCCn1nnnc1C(c1ccnc2ccccc12)N1CCC(n2c(=O)[nH]c3ccccc32)CC1 (centres undefined)	inactive: -0.124%
CC(C)c1ccc(NC2CCN(C(=O)OC(C)(C)C)CC2)cc1	inactive: 1.07%
CN(C)c1cccc(C(=O)NCC2(N3CCCCC3)CCCCC2)c1	inactive: 1.23%
COc1ccc(C(c2nnnn2C2CCCC2)N2CCC(n3c(=O)[nH]c4ccccc43)CC2)cc1 (centres undefined)	inactive: -0.189%
Cc1ccc(C(=O)NCC2(N(C)C)CCCCC2)o1	inactive: -0.939%
O=C(NCC1(N2CCCCC2)CCCCC1)c1cncc(Br)c1	inactive: -1.14%
O=c1[nH]c2ccccc2n1C1CCN(C(c2cccs2)c2nnnn2C2CCCCC2)CC1 (centres undefined)	inactive: -0.419%
CCCCn1nnnc1C(c1ccccc1)N1CCC(n2c(=O)[nH]c3ccccc32)CC1 (centres undefined)	inactive: -0.137%
COc1cc(C(=O)NCC2(N3CCOCC3)CCCCC2)cc(OC)c1C	inactive: 0.527%
O=C(NCC1(N2CCOCC2)CCCCC1)c1cc(Br)ccc1Cl	inactive: 0.373%
CCCCn1nnnc1C(c1cccc(OC)c1OC)N1CCC(n2c(=O)[nH]c3ccccc32)CC1 (centres undefined)	inactive: -0.2%
N#Cc1ccc(C(=O)NCC2(N3CCCCC3)CCCCC2)cc1	inactive: 3.9%
CC(C)(C)OC(=O)N1CCC(N(C(=O)c2ccccc2)c2ccc(Cl)cc2)CC1	inactive: 0.022%
CC(C)(C)n1nnnc1C(c1cccc2ccccc12)N1CCC(n2c(=O)[nH]c3ccccc32)CC1 (centres undefined)	inactive: -0.461%
CN(C)C1(CNC(=O)c2cccc(C#N)c2)CCCCC1	inactive: -0.066%
C/C(N)=N\P(=O)(Oc1ccccc1)Oc1ccccc1	inactive: 0.294%

Compound	activation
O=c1[nH]c2ccccc2n1C1CCN(C(c2ccccc2)c2nnnn2C2CCCC2)CC1 (centres undefined)	inactive: -0.762%
Cc1cc(N(CCCl)CCCl)ccc1C=O	inactive: 0.114%
Cc1ccc(C(=O)NCC2(N3CCCCC3)CCCCC2)o1	inactive: -0.573%
Cc1ccc(NC2(C#N)CCN(Cc3ccccc3)CC2)cc1	inactive: 0.254%
CC(=O)N(c1ccccc1)C1CCNCC1	inactive: 1.22%
CCC(c1nnnn1C1CCCCC1)N1CCC(n2c(=O)[nH]c3ccccc32)CC1 (centres undefined)	inactive: 1.05%
COc1cc(OC)cc(C(=O)NCC2(N3CCCCC3)CCCCC2)c1	inactive: -0.137%
O=C(NCC1(N2CCCCC2)CCCCC1)c1ccco1	inactive: 0.1%
CN(C)c1ccc(C(=O)NCC2(N3CCCCC3)CCCCC2)cc1	inactive: -1.74%
Cn1c(=O)[nH]cc(N(CCCl)CCCl)c1=O	inactive: -0.481%
Cc1ccccc1NC1(C#N)CCN(Cc2ccccc2)CC1	inactive: -0.0215%
COc1ccc(C(c2nnnn2C2CCCCC2)N2CCC(n3c(=O)[nH]c4ccccc43)CC2)cc1 (centres undefined)	inactive: -0.071%
CC(C)(C)OC(=O)N1CCC(Nc2ccccc2)CC1	inactive: -1.62%
NN(c1ccccc1)C1CCN(CCc2ccccc2)CC1	inactive: 11.1%
O=C(O)C1(Nc2ccccc2)CCN(Cc2ccccc2)CC1	inactive: -0.0415%
O=c1[nH]c2ccccc2n1C1CCN(C(c2cc3ccccc3o2)c2nnnn2C2CCCC2)CC1 (centres undefined)	inactive: 0.051%
CCCOc1ccc(C(=O)NCC2(N(C)C)CCCCC2)cc1	inactive: 0.165%
COc1cccc(C(=O)N(c2cc(C)cc(C)c2)C2CCN(C(=O)OC(C)(C)C)CC2)c1	inactive: -0.0695%
COc1cccc(C(c2nnnn2C2CCCC2)N2CCC(n3c(=O)[nH]c4ccccc43)CC2)c1OC (centres undefined)	inactive: -1.62%
